These results are taken from US6080542A, “Plant peptide transport gene” (priority 1997, dated 2000).

The subject of one assay is ATPTR2Ap. The experiment in a line: Uptake of L-leucyl-L-[3H]leucine and competition, PB1X-9B[pPTF4]. The settings on record: pH 5.5, dileucine and leucine at 100-fold. As to the method:
The kinetics of ATPTR2A-mediated transport of peptides in yeast was evaluated by transforming pPTF4 into the S. cerevisiae peptide transport mutant, PB1X-9B and measuring the uptake of tritiated Leu-Leu dipeptide.
(§1) L-leucyl-L [^3 H]leucine trifluoroacetic acid (TFA) was synthesized by standard solution phase techniques (Naider, F. et al., J. Biol. Chem. 249:9-20 (1974)). Uptake of L-leucyl-L-[H]leucine was performed as by Island, M. D. et al (J. Bacteriol. 169:2132-2136 (1987)), with the following modifications. Cells were grown to late log phase (26×10^7 cells/ml) overnight in SC with 2% glucose, 1 mg/ml allantoin plus amino acids to supplement auxotrophic markers. To induce peptide transport. 5-15 ml from this culture was added to 100 ml fresh medium such that the density was 3.0×10^6 cells/ml. This culture was allowed to grow (approx. 2 hrs.) to a density of 6.0×10^6 cells/ml and then harvested by centrifugation. The pelleted cells were washed twice with 10 ml cold dH2 O and suspended in cold 2% glucose to a final concentration of 2×10^8 cells/ml and incubated at 30° C. for 15 min. 500 μl of cells were then added to an equal volume of reaction mixture (30° C.) and incubated at 30°-C. At 20, 40, 60, 90, and 120 sec. intervals, 190 μl portions were removed, filtered over filters (pore size, 0.45 μm; GN-6; Gelman Sciences, Inc., Ann Arbor, Mich.) and washed 2 times with 5 ml cold, sterile dH2 O and once with 5 ml dH2 O at room temperatures. Filters were placed in scintillation vials with 5 ml of Budget-Solve scintillation cocktail (Research Products International Corp., Mount Prospect, Ill.) and counted (liquid scintillation counter; LS-7000; Beckman Instruments, Inc., Fullerton, Calif.). The final concentration of the components in the uptake assay was 1% glucose, 40 mM sodium citrate-potassium phosphate buffer (pH 5.5), and 1.5×105 M L-leucyl-L-[^3 H]leucine (specific activity, 10 mCi/mmole). Uptake is expressed as nanomoles per mg dry weight.

For a further assay, the system named is A. thaliana seedlings. The experiment in a line: Root assay, toxic peptide plus competitor peptide. In kind it is in vivo, Arabidopsis thaliana. As to the method:
Approximately 15 A. thaliana seeds were placed in a row at one end of 10 cm plate containing 20 ml of Arabidopsis growth media (Kranz and Kirchheim 1987). The seeds were incubated 3-5 days in the light with the plate set in an upright position. When the roots were approximately 1-2 cm long, sterile paper filter disks were placed immediately in front of the root tips on the right and left side of the plate 2 cm from the edge of the plate. A line was drawn across the plate using the top of the disks as a guide marking zero growth. 5 μl of toxic amino acid analog, toxic peptide, or toxic peptide plus competitor was added to one disk while H2 O was place on the other disk. The plates were incubated for an additional 3-5 days. The average length of the roots was measured from the line and the results expressed as a percentage of control root growth.

For assay [1], the target named is T1, yeast peptide transport system (Saccharomyces cerevisiae, UniProt P32901).
T1 construct: The ptr2 gene encodes a 602 amino acid hydrophobic polypeptide with 12 putative hydrophobic segments; expressed in transfected cells; host or cells: S. cerevisiae peptide transport mutant PB1X-9B (ptr2-2) transformed with pJP9
T1 sequence (P32901 1-601): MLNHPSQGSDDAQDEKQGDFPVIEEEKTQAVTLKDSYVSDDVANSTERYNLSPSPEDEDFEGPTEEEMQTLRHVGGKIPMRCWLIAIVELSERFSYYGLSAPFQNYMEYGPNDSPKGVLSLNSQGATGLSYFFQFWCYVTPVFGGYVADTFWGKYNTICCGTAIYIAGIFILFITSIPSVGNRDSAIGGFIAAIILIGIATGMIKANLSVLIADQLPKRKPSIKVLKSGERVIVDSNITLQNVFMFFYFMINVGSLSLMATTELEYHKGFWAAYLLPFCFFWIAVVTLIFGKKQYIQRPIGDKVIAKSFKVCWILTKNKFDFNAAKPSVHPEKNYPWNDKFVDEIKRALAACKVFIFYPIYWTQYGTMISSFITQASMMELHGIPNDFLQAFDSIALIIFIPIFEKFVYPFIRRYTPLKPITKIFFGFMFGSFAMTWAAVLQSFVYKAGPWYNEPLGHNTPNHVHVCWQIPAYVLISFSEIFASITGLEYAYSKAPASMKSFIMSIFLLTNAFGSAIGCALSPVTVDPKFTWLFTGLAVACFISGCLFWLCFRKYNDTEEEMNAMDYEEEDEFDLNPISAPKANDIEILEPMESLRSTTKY
Description: Competition for L-leucyl-L-[3H]leucine uptake, PB1X-9B[pJP9]. In kind it is cell-based. The note with it: pH 5.5. As to the method: as §1

The subject of a further assay is PB1X-9B (pPTF4). Description: Growth on peptides, mutant transformed with plant gene ATPTR2A. The format is cell-based, Saccharomyces cerevisiae. Also on record: key: +: Growth was scored as uniform colony formation; -: negative controls which showed no growth. The note with it: PBIX-9B (pPTF4); 80 μM peptide in SC medium, 30° C., 72 hrs. As to the method: (§2) Thus, the peptide transport mutant PB1X-9B and deletion strain PB1X-2AΔ transformed with plasmids pPTF4 (ATPTR2A) or pDTF1 (ATPTR2B) were grown on various peptides to assess the specificity of the plant peptide transporter. In addition, untransformed PB1X-9B, PB1X-9B transformed with plasmid pJP9 encoding the above-described yeast peptide transport gene, PB1X-2AΔ and PB1X-2A, the ptr2^+ parental strain to PB1X-2AΔ strain, were also assayed. Each strain was grown overnight in SC media plus uracil (non-transformed) or minus uracil (transformed) plus amino acids to stationary phase and harvested by centrifugation. Cells were then washed twice with sterile dH2 O and resuspended at 5×10^6 cells/ml. 5 μl of each suspension was applied as a small spot to a 2 ml volume of solid media in a 24 well plate. All peptides were suspended in sterile, deionized water and added to an equal volume of SC medium plus the appropriate amino acids and uracil when required. The medium for each assay thus consisted of SC medium plus or minus uracil supplemented with 80 μM of a specific peptide and auxotrophic requirements minus the amino acid components of the added peptide. The plates were incubated at 30° C. for 72 hrs. and then scored for growth.

The next assay concerns PB1X-9B. Description: Growth on peptides as amino acid source, peptide transport mutant. The note with it: PBIX-9B; 80 μM peptide in SC medium, 30° C., 72 hrs. In kind it is cell-based, Saccharomyces cerevisiae. Also on record: key: +: Growth was scored as uniform colony formation; -: negative controls which showed no growth. As to the method:
as §2

Another assay deals with PB1X-2AΔ (pDTF1). Description: Growth on peptides, deletion strain transformed with ATPTR2B. In kind it is cell-based, Saccharomyces cerevisiae. The arrangement: key: +: Growth was scored as uniform colony formation; -: negative controls which showed no growth. The note with it: PBIX-2AΔ (pDTF1); 80 μM peptide in SC medium, 30° C., 72 hrs. As to the method:
as §2

A further assay relates to PB1X-9B (pJP9). Description: Growth on peptides, mutant transformed with yeast peptide transport gene. In kind it is cell-based, Saccharomyces cerevisiae. The arrangement: key to growth on peptide: +: Growth was scored as uniform colony formation; -: negative controls which showed no growth. The note with it: for growth on peptide: PBIX-9B (pJP9), 80 μM peptide in SC medium, 30° C., 72 hrs. As to the method:
as §2

Take Ala-Ala: competitor dipeptide (AA): the “competition for uptake of [3H]-dileucine” value (in the assay on ATPTR2Ap; in assay [1]) was “uptake competition similar to that seen for Leu-Leu” throughout. Moreover, the “reversal of toxicity by competitor (in words)” value (shortened to “reversal of toxicity”) with A. thaliana seedlings (toxic peptide Ala-Eth) and with A. thaliana seedlings (toxic peptide Leu-Eth) was “unable to reverse the inhibition” each time. Besides, the “root growth with toxic peptide plus competitor” value (from here on “root growth”) in the assay on A. thaliana seedlings (toxic peptide Ala-Eth) and in the assay on A. thaliana seedlings (toxic peptide Leu-Eth) was 0 percentage of control root gro in each case.

On to Leu-Met: competitor dipeptide (LM), for which, in the assay on A. thaliana seedlings (toxic peptide Leu-Eth), the “reversal of toxicity” value is reported as “reversing the toxicity” and the “root growth” value is recorded as 100 percentage of control root gro.

With Lys-Lys: dipeptide growth substrate, the growth on peptide entry is on record as “+” in the assay on PB1X-9B (pPTF4), “-” in the assay on PB1X-9B, “+” with PB1X-2AΔ (pDTF1) and “+” in the assay on PB1X-9B (pJP9).

Take Met-Met: competitor dipeptide (MM): the “competition for uptake of [3H]-dileucine” value (with ATPTR2Ap; in assay [1]) was “uptake competition similar to that seen for Leu-Leu” each time. Moreover, the “reversal of toxicity” value was “able to reverse the toxicity” in the assay with A. thaliana seedlings (toxic peptide Ala-Eth) and “reversing the toxicity” with A. thaliana seedlings (toxic peptide Leu-Eth). The “root growth” value with A. thaliana seedlings (toxic peptide Ala-Eth) is reported as 40 percentage of control root gro.

Consider Ala-Met: competitor dipeptide (AM), for which the “competition for uptake of [3H]-dileucine” value in the assay with ATPTR2Ap is “uptake competition similar to that seen for Leu-Leu”. Further, in the assay with A. thaliana seedlings (toxic peptide Ala-Eth), the “reversal of toxicity” value is reported as “able to reverse the toxicity” and the “root growth” value is listed as 70 percentage of control root gro. Besides, in assay [1], the “competition for uptake of [3H]-dileucine” value was “uptake competition similar to that seen for Leu-Leu”.

For the substance “His-Lys: dipeptide growth substrate (HK)”, the growth on peptide result is on record as “+” with PB1X-9B (pPTF4), “-” with PB1X-9B, “+” in the assay with PB1X-2AΔ (pDTF1) and “+” with PB1X-9B (pJP9).

Tyr-Gly-Gly-Phe-Leu: the growth on peptide result with PB1X-9B (pPTF4), in the assay with PB1X-9B and in the assay on PB1X-9B (pJP9) was “-” in each case. Moreover, in the assay with PB1X-9B (pJP9) (PB1X-9B transformed with pJP9), the “growth on peptide (in words)” value is “showed growth on all peptides except”.

For the substance “Ala-Lys: dipeptide growth substrate (AK)”, the growth on peptide entry in the assay with PB1X-9B (pPTF4) is given as “+”; in the assay on PB1X-9B it was “-”; with PB1X-2AΔ (pDTF1), “+”; with PB1X-9B (pJP9), “+”.

“Ala-Leu: dipeptide growth substrate (AL)”: the growth on peptide entry in the assay with PB1X-9B (pPTF4) is “+”; in the assay with PB1X-9B, “-”; in the assay on PB1X-9B (pJP9), “+”.

Leu-Phe: competitor dipeptide (LF): the “competition for uptake of [3H]-dileucine” value (with ATPTR2Ap; in assay [1]) was “uptake competition similar to that seen for Leu-Leu” in each case.
